## AlphaSeq binding of Ab-14 heavy chain variants to a spike HR2 peptide

Antigen: PDVDLGDISGINAS, a 14-residue peptide of the SARS-CoV-2 spike HR2 region.

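The parent was found by panning a naive human phage display library on the peptide. In library AAYL49, one, two or three CDR residues were substituted; doubles and triples were drawn at random. The scFvs were displayed on barcoded MATa yeast, the peptide on MATalpha yeast. Mating (16 h, 30 °C) was followed by selection of diploids and sequencing of their barcodes. Scores were corrected for input abundance and mapped to Kd with protein pairs of known affinity run in the same pool. The assay was run in three technical replicates.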

Ab-14 is the parent antibody, in scFv form: VH, then a (GGGGS)3 linker, then VL. The light chain is unchanged in all variants.
VH: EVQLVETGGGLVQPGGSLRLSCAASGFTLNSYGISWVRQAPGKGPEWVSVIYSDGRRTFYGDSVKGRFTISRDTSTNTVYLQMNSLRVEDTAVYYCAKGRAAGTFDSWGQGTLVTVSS
VL: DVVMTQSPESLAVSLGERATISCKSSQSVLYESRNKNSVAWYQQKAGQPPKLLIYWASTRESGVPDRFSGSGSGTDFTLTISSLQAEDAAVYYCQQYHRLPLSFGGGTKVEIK

The parent's heavy chain CDRs are GFTLNSYGIS, VIYSDGRRTFYGDSVK, GRAAGTFDS; each variant's own CDRs replace them letter for letter.
Values are log10 of the apparent Kd in nM; lower means stronger binding.
Where no diploid with the target was found in that replicate, the entry reads "nd": below detection, most likely a poor binder, though not proof of it.
For reference, the parent read 0.65 as the reference entry and 4.11 (one replicate of three) as a member of this library.

CDR-H1,CDR-H2,CDR-H3,"log10 Kd, replicates",signal with controls
GFTLNSYGIS,VIYSDGRRTKYGWSVK,GRAAGTFIS,nd / nd / nd,1/9 (3.69)
GFTLNSYGIW,VIYSDGRRTFYGDSVK,GRAAGTEDS,nd / nd / nd,0/9
GFTLNSYGIN,VIYQDGRRTYYGDSVK,GRAAGTFDS,nd / nd / nd,0/9
GFTLNSYGIS,VICSDGPRTFYGDSGK,GRAAGTFDS,nd / nd / nd,0/9
GFTLPSYGIS,VIYSDGRRTFYGDSVK,GRAAGTFDS,3.19 / 2.61 / 2.79,2/9 (3.44)
GFTLNSQGIS,VIYSDGRRTFYGDSVK,GRAARTFCS,5.75 / nd / nd,0/9
GFQLNSYGIS,HTYSDGRRTFYGDSVK,GRAAGTFDS,nd / nd / nd,0/9
GFTLNSQEIS,VIYSDGTRTFYGDSVK,GRAAGTFDS,nd / 3.22 / nd,0/9
GFTLNSYGIS,VIYSDGRRTFYFRSVK,GRAAMTFDS,nd / nd / 4.71,3/9 (3.88)
GFTLTSYGIS,VIYTDGRRTFYGDSVK,GRAAGTFDW,nd / nd / 2.23,0/9
GFTLNDYGIS,VIYSDGRRTFSGDSVK,GRAAGTFDC,nd / nd / nd,0/9
GFTLNSYVIS,VIYSDGRRTFYGDSKK,SRAAGTFDS,nd / 3.82 / 5.69,7/9 (4.78)
GFFLNSYGIS,VIYSIGRRTFYGDSVK,GRAAHTFDS,nd / nd / nd,0/9
GFTLNSYGAS,VIYSDGRRCFYGASVK,GRAAGTFDS,6.60 / nd / nd,5/9 (4.33)
GFTLNSYGIS,VIYSDGRRCFYGDSVK,GRAAGQVDS,4.79 / 4.43 / 3.56,1/9 (2.99)
GFTLNSYGID,VIYSDGRRTFYGDSVK,GWARGTFDS,1.71 / 1.85 / 2.03,1/9 (3.51)
GFTLNSYGIS,VIYSDGRRTFHGDSVK,GRWEGTFDS,nd / nd / nd,3/9 (3.78)
GFTLVSYGIS,VIYSDGRRTFYGDSVK,GCAAWTFDS,nd / nd / nd,0/9
GFTLNSYGIS,VIYSDGRRTFERDSDK,GRAAGTFDS,nd / nd / 2.87,0/9
GFTLNSYGIS,VIYTKGRDTFYGDSVK,GRAAGTFDS,nd / nd / 3.42,2/9 (3.82)
GFTLNSYGIS,VIYSTGRRQFYGDSVK,GHAAGTFDS,6.25 / nd / nd,2/9 (3.76)
GHTLNSYGIS,VIYSDGRKTFYGDSVK,GRAAGTFVS,2.07 / 2.47 / 2.05,2/9 (4.17)
GFTLNGYGIS,VIYSDGRRTFDGISVK,GRAAGTFDS,nd / nd / nd,0/9
GFTLNSPGIS,VIYSEGRRTFYGDSVK,GRAAGYFDS,nd / nd / nd,0/9
GFTLNSYGIS,VIYSDGRGTFSGDSVK,GRAAGTLDS,nd / nd / nd,1/9 (4.55)
TFTLNSYGIS,VIYSEGRRTFYGVSVK,GRAAGTFDS,4.93 / 4.37 / nd,3/9 (4.62)
GGTRNSYGIS,VIISDGRRTFYGDSVK,GRAAGTFDS,nd / nd / nd,0/9
GFTLNSGGIS,VIYTDGRRTFYGDSVK,GLAAGTFDS,nd / 3.80 / nd,3/9 (3.78)
GTTLNSYGIS,VIYSDGRRTFYGDSVK,GRLRGTFDS,nd / 2.88 / 1.66,0/9
GITLNSYGIS,VIYSDGRRTFYGDSVK,GRAAGTFDS,nd / nd / nd,0/9

The 4 strongest on average among those seen in every replicate, once more:

CDR-H1,CDR-H2,CDR-H3,"log10 Kd, replicates",signal with controls
GFTLNSYGID,VIYSDGRRTFYGDSVK,GWARGTFDS,1.71 / 1.85 / 2.03,1/9 (3.51)
GHTLNSYGIS,VIYSDGRKTFYGDSVK,GRAAGTFVS,2.07 / 2.47 / 2.05,2/9 (4.17)
GFTLPSYGIS,VIYSDGRRTFYGDSVK,GRAAGTFDS,3.19 / 2.61 / 2.79,2/9 (3.44)
GFTLNSYGIS,VIYSDGRRCFYGDSVK,GRAAGQVDS,4.79 / 4.43 / 3.56,1/9 (2.99)

Nonspecific signal, from three strains lacking the peptide, appeared in 15% of pairings of library AAYL49, centred on 4.06 (5% of these signals below 2.83); values are not corrected for it. Also given: how often the same scFv was detected with the empty control strains, with their mean in brackets.

Data: MIT Lincoln Laboratory AlphaSeq set, Engelhart et al. 2022, doi:10.1038/s41597-022-01779-4, as distributed in FLAb.